The list shows a part of the results, in another mix than the full data. Inconclusive results are not listed. Calls of active or inactive are those of the source. How the source made its calls, unless noted: active means hit-call score of the fitted dose curve at least 0.9, where 1 is the maximum; inconclusive means response in the unintended direction; inactive means score below 0.9.
Assays:
[1] = ATG_XTT_Cytotoxicity: Cytotoxicity Assessment in the Attagene TRANS-FACTORIAL HepG2 Assay (AID 2283584);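 on AC50: XTT signal for cell number as viability in transfected HepG2 cells; cells exposed to compound for 24 h before reading; active means loss of viability signal versus DMSO baseline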
In short: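 24 h chemical exposure of reporter-transfected HepG2; XTT signal loss vs DMSO indicates cytotoxicity.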

[2] = read-out: X-box binding protein 1 (XBP1), XBP1 (gene 7494); assay: LTEA_HepaRG_XBP1: Life Technologies and Expression Analysis (LTEA) Assay for X-box binding protein 1 (XBP1) using HepaRG (AID 2283540; active means hit-call score of the fitted dose curve at least 0.9, where 1 is the maximum; inactive means score below 0.9); details: actives raise or lower the signal; mRNA level, 48 h
In short: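 Eight concentrations (half-log, highest 100 uM, 0.5% DMSO) tested in duplicate on HepaRG cells over 48 h in serum-free induction medium; qRT-PCR of XBP1 normalised to ACTB, GAPDH, POLR2A.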

[3] = LTEA_HepaRG_LDH_cytotoxicity: Cytotoxicity Assessment in the Life Technologies and Expression Analysis (LTEA) Assay (AID 2283563);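 on AC50: LDH activity released into spent culture medium as a marker of cell death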
In short: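 Spent-medium LDH after 48 h chemical exposure of HepaRG cells in serum-free induction medium; eight concentrations, half-log dilutions from 100 uM, duplicate wells, fitted upward relative to 0.5% DMSO.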

[4] = Tanguay_ZF_120hpf_MORT_legacy: (Legacy) Oregon State University Tanguay Lab 120 Hour Post-fertilization zebrafish Assay for Mortality (AID 2283633);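 on AC50: fitted as increase in binary mortality versus DMSO negative control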
In short: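 Single dechorionated Tropical 5D embryos were held with test chemical (0.64% DMSO final) from 6 to 120 hpf at 28C under foil. Deaths at 24 or 120 hpf were recorded as binary calls, analysed for increase over DMSO controls.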

[5] = Tanguay_ZF_120hpf_YSE_legacy: (Legacy) Oregon State University Tanguay Lab 120 Hour Post-fertilization zebrafish Assay for Yolk Sac Edema (AID 2283634);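 on AC50: actives raise the incidence of yolk sac edema above the DMSO baseline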
In short: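 Single dechorionated embryos were held in sealed plates at 28C with test chemical (0.64% DMSO final) from 6 hpf until 120 hpf. Edema of the yolk sac was then recorded as a binary endpoint; non-mortality endpoints were skipped for dead embryos.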

[6] = Tanguay_ZF_120hpf_AXIS_legacy: (Legacy) Oregon State University Tanguay Lab 120 Hour Post-fertilization zebrafish Assay for Body Axis Malformation (AID 2283635)
In short: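 Each dechorionated embryo was exposed alone from 6 hpf, with DMSO at 0.64% (vol/vol) and trimethyltin chloride 5 uM as positive control. Axis malformation was recorded at 120 hpf unless the embryo had died.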

[7] = Tanguay_ZF_120hpf_EYE_legacy: (Legacy) Oregon State University Tanguay Lab 120 Hour Post-fertilization zebrafish Assay for Eye Malformation (AID 2283636);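 further: binary presence or absence of eye malformation scored by brightfield in 120 hpf larvae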
In short: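 Static waterborne exposure of dechorionated zebrafish embryos (strain Tropical 5D), 6 to 120 hpf, sealed plates at 28C, 0.64% DMSO vehicle. Eye malformation is scored as a binary endpoint, with gain of signal analysed relative to DMSO.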

[8] = Tanguay_ZF_120hpf_SNOU_legacy: (Legacy) Oregon State University Tanguay Lab 120 Hour Post-fertilization zebrafish Assay for Snout Malformation (AID 2283637)
In short: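 Dechorionated zebrafish, individually housed from 6 hpf in covered, sealed wells at 28C with 0.64% DMSO vehicle, were examined at 120 hpf for snout malformation. Responses were binary and analysed positive-direction relative to DMSO.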

[9] = Tanguay_ZF_120hpf_JAW_legacy: (Legacy) Oregon State University Tanguay Lab 120 Hour Post-fertilization zebrafish Assay for Jaw Malformation (AID 2283638)
In short: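 Wild-type 5D embryos, chorion removed at 4 hpf, dosed singly from 6 hpf; 28C static, sealed, foil-covered, to 120 hpf. Endpoint: jaw defect yes/no (brightfield); mortality excludes scoring.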

[10] = Tanguay_ZF_120hpf_OTIC_legacy: (Legacy) Oregon State University Tanguay Lab 120 Hour Post-fertilization zebrafish Assay for Otic Vesicle Malformation (AID 2283639)
In short: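 Statically exposed wild-type 5D zebrafish embryos, kept sealed and dark at 28C through 120 hours post fertilization, were examined by brightfield microscopy for otic vesicle defects. Responses were recorded as present or absent and analysed relative to DMSO.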

[11] = Tanguay_ZF_120hpf_PE_legacy: (Legacy) Oregon State University Tanguay Lab 120 Hour Post-fertilization zebrafish Assay for Pericardial Edema (AID 2283640);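 on AC50: potency for increased incidence of pericardial edema versus DMSO baseline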
In short: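 Zebrafish larvae are exposed from early development to 120 hpf at 28C, with 0.64% DMSO final. Each surviving larva receives a yes/no pericardial edema call by brightfield imaging, analysed relative to the DMSO baseline.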

[12] = Tanguay_ZF_120hpf_SOMI_legacy: (Legacy) Oregon State University Tanguay Lab 120 Hour Post-fertilization zebrafish Assay for Somite Malformation (AID 2283647)
In short: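 Somitogenesis defects are recorded as binary calls in whole larvae at 120 hpf after continuous static chemical exposure starting at 6 hpf in dechorionated 5D embryos. DMSO serves as negative control and baseline.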

[13] = Tanguay_ZF_120hpf_PFIN_legacy: (Legacy) Oregon State University Tanguay Lab 120 Hour Post-fertilization zebrafish Assay for Pectoral Fin Malformation (AID 2283648);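 further: each larva judged yes or no for fin defect by brightfield with dead larvae skipped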
In short: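 Scoring of pectoral fin malformation was binary, made at 120 hpf on larvae exposed statically from 6 hpf after enzymatic chorion removal. Activity was fitted upward relative to DMSO controls at 0.64% (vol/vol).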

[14] = Tanguay_ZF_120hpf_CFIN_legacy: (Legacy) Oregon State University Tanguay Lab 120 Hour Post-fertilization zebrafish Assay for Caudal Fin Malformation (AID 2283649)
In short: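 Single dechorionated 5D wild-type embryos are dosed at 6 hpf (final DMSO 0.64%) and held statically at 28C. Caudal fin malformation is recorded as present or absent at 120 hpf under brightfield, excluding dead embryos.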

[15] = Tanguay_ZF_120hpf_TRUN_legacy: (Legacy) Oregon State University Tanguay Lab 120 Hour Post-fertilization zebrafish Assay for Truncated Body (AID 2283655)
In short: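 Single dechorionated zebrafish embryos received test chemical from 6 hpf in 0.64% DMSO, kept at 28C. At 120 hpf, brightfield inspection noted any truncated body.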

[16] = Tanguay_ZF_120hpf_NC_legacy: (Legacy) Oregon State University Tanguay Lab 120 Hour Post-fertilization zebrafish Assay for Notochord and Tail Malformation (AID 2283656)
In short: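 Binary scoring of notochord distortion by brightfield microscopy; embryos dying were not scored. Wild-type Tropical 5D embryos, chorion removed, exposed singly and statically from 6 to 120 hpf, 28C, sealed, 0.64% DMSO.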

[17] = Tanguay_ZF_120hpf_PIG_legacy: (Legacy) Oregon State University Tanguay Lab 120 Hour Post-fertilization zebrafish Assay for Pigmentation Malformation (AID 2283650)
In short: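 Endpoint is incidence of abnormal pigmentation at 120 hpf in dechorionated 5D zebrafish exposed singly from 6 hpf at 28C, DMSO vehicle at 0.64%. Embryos dying by 24 or 120 hpf are excluded from scoring.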

[18] = Tanguay_ZF_120hpf_CIRC_legacy: (Legacy) Oregon State University Tanguay Lab 120 Hour Post-fertilization zebrafish Assay for Circulatory Malformation (AID 2283651)
In short: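 Embryos are dechorionated at 4 hpf, plated one per well at 6 hpf, then held under static exposure at 28C until 120 hpf. Malformations are recorded as binary calls; mortality excludes other endpoints.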

[19] = Tanguay_ZF_120hpf_SWIM_legacy: (Legacy) Oregon State University Tanguay Lab 120 Hour Post-fertilization zebrafish Assay for Swim Bladder Malformation (AID 2283654);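 further: swim bladder malformation in each larva scored yes or no under brightfield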
In short: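 Static waterborne exposure of single dechorionated Tropical 5D zebrafish embryos, 6–120 hpf, 28C, 0.64% DMSO final. Read-out: swim bladder malformation, present/absent, relative to DMSO negative control; trimethyltin chloride 5uM served as positive control.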

[20] = Tanguay_ZF_120hpf_BRAI_legacy: (Legacy) Oregon State University Tanguay Lab 120 Hour Post-fertilization zebrafish Assay for Brain Malformation (AID 2283641)
In short: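 Static exposure of staged wild-type embryos until 120 hpf, kept at 28C with light excluded and final DMSO of 0.64% (vol/vol). Presence or absence of brain malformation was noted under brightfield; mortality precluded scoring.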

Measured: AC50

O=[N+]([O-])c1ccc([N+](=O)[O-])cc1
inactive: [1]

O=C1C2CC=CCC2C(=O)N1SC(Cl)(Cl)C(Cl)Cl (centres undefined)
active: [3] 66.8 µM | [4] 32.8 µM
not listed: [1] | [17] | [18] | [19] | [20]
inactive: all other assays above

O=[P+](Oc1ccccc1)Oc1ccccc1
inactive: [1]

Cc1cc([N+](=O)[O-])cc([N+](=O)[O-])c1O
active: [4] 3.05 µM | [5] 1.19 µM | [11] 5.12 µM | [14] 4.94 µM
inactive: [1] | [6] | [7] | [8] | [10] | [17] | [18] | [19]

O=C(Cl)Oc1ccccc1
inactive: [1]

CC(C)CCCCCCCOP(OCCCCCCCC(C)C)Oc1ccccc1
inactive: [1]

N#CSc1ccc([N+](=O)[O-])cc1[N+](=O)[O-]
active: [1] 52.3 µM

CC(C)OP(=S)(OC(C)C)SCCNS(=O)(=O)c1ccccc1
active: [3] 75.1 µM
not listed: [1] | [6] | [9] | [13] | [17]
inactive: all other assays above

CN(C(=O)Cc1cccc2occc12)[C@H]1CC[C@@]2(CCCO2)C[C@@H]1N1CCCC1
not listed: [1] | [18]
inactive: all other assays above

ClP(Cl)c1ccccc1
inactive: [1]

O=C(Cl)OCCOC(=O)Cl
inactive: [1]

O=P(Cl)(Oc1ccccc1)Oc1ccccc1
inactive: [1]

CCCCOP(OCCCC)OCCCC
inactive: [1]

— PubChem BioAssay (EPA / NIEHS)
